Source: patent US20120015352A1, “METHOD OF DETERMINING SENSITIVITY OF HUMAN OR NON-HUMAN ANIMAL CELLS TO AN IAP ANTAGONIST” (Otto-von-Guericke-Universitat Magdeburg, priority 2009, published 2012)

Key:
A549 cells = assay: Knockdown of cFLIP, AnnexinV/propidium iodide FACS apoptosis; format: cell-based; details: cFLIP siRNA; 100 ng/ml TNFα, 24 hr
Experimental: (§1) Knockdown of cFLIP. Cell lines were plated into 24 well plates at a density of 35,000 cells per well. Next day, cell lines were transfected with 100 nM control siRNA or siRNA designed to silence expression of cFLIP (L & S isoform). 48 hrs after transfection cells were treated with 100 ng/ml TNFα, 100 nM Smac mimetic, or the combination of both. (The Smac mimetic used herein was a compound other than Compound A.) After an additional 24 hr incubation, all cells were harvested and stained with FITC labeled AnnexinV and Propidium Iodode. Staining was analyzed by flow cytometry.

IGROV-1 cells = assay: as above; format: cell-based; details: cFLIP siRNA; 100 ng/ml TNFα, 24 hr
Experimental: as §1

**Q.** For “TNFα: TNF alpha, death ligand used at 100 ng/ml”, which “sensitization (apoptosis) to TNFα alone” value (A549 cells) is on record?
**A.** No significant sensitization

**Q.** And the “sensitization (apoptosis) to TNFα alone” value (IGROV-1 cells)?
**A.** No significant sensitization
